Measurements published in PubChem BioAssay AID624287 (National Center for Advancing Translational Sciences (NCATS), 2012).
The list shows a part of the results, in another mix than the full data. Results filed as inconclusive are left out. Active and inactive are the calls of the source. Calls come from the whole dose curve; as a rule, active = well fitted activation curve with a large enough effect; inconclusive = small, poorly fitted or top-dose-only effect, or another doubt; inactive = no such curve, though single readings can be large or run the other way; cell line not stated here.

Assay: qHTS for Agonist of gsp, the Etiologic Mutation Responsible for Fibrous Dysplasia/McCune-Albright Syndrome: qHTS;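 note: phosphodiesterase inhibitor Ro 20-1724 added with compounds to block cAMP breakdown; nearly all actives have a fitted effect of over 60% in size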
Details: gsp mutant cells, cAMP HTRF, 30 min; at 76.9 µM (top of the series) unless noted

**Q.** Which activation (cAMP increase) does the source give for `COc1ccccc1CNC(=O)COC(=O)C(O)(c1ccccc1)c1ccccc1` here?
**A.** Its activation (cAMP increase) is inactive: -4.9%.

**Q.** For `O=[N+]([O-])c1cc([N+](=O)[O-])c(-c2cnn(-c3ccccc3)c2)c([N+](=O)[O-])c1`, which activation (cAMP increase) is on record?
**A.** Its activation (cAMP increase) is inactive: 0.348% [at 15.4 µM].

**Q.** For `CC1(CBr)Cn2c(nc3ccccc3c2=O)S1` (stereo not given), which activation (cAMP increase) is on record?
**A.** Its activation (cAMP increase) is inactive: 8.34%.

**Q.** Which activation (cAMP increase) does the source give for `CC(C)/C=N\N=C(\N)N[N+](=O)[O-]` here?
**A.** Its activation (cAMP increase) is inactive: -0.0269% [at 15.4 µM].

**Q.** For `CCOP(=O)(Nc1ccc(C)cn1)OCC`, which activation (cAMP increase) is on record?
**A.** The activation (cAMP increase) was inactive: 1.32%.

**Q.** For `CCOP(=O)(NC(=NC(C)c1ccccc1)NC(C)c1ccccc1)OCC` (stereo not given), which activation (cAMP increase) is on record?
**A.** The activation (cAMP increase) was inactive: -35.1%.

**Q.** Which activation (cAMP increase) does the source give for `O=C(O)C(O)c1ccc(N(CCCl)CCCl)cc1.c1ccncc1` (stereo not given) here?
**A.** The activation (cAMP increase) was inactive: -32.3%.

**Q.** Which activation (cAMP increase) does the source give for `CCC1=CC2Cc3nc4ccc(Cl)cc4c(N)c3C(C1)C2` (stereo not given) here?
**A.** Its activation (cAMP increase) is inactive: 16.4%.

**Q.** With `O=P1(Nc2ccccn2)COc2ccccc2OC1` as the compound, how does the activation (cAMP increase) read?
**A.** Its activation (cAMP increase) is inactive: -6.04%.

**Q.** Which activation (cAMP increase) does the source give for `CC(C)(C)C(=O)NC(Sc1ncccn1)C(Cl)(Cl)Cl` (stereo not given) here?
**A.** Its activation (cAMP increase) is inactive: -35.6%.

**Q.** Which activation (cAMP increase) does the source give for `Clc1n[nH]nc1-c1nn[nH][15n]1` here?
**A.** The activation (cAMP increase) was inactive: 26%.

**Q.** With `O=P1(N(CCCl)CCCl)NCCC(C(F)(F)F)O1` (stereo not given) as the compound, how does the activation (cAMP increase) read?
**A.** The activation (cAMP increase) was inactive: 17.7%.

**Q.** For `O=P1(Nc2ncccn2)COc2ccccc2OC1`, which activation (cAMP increase) is on record?
**A.** The activation (cAMP increase) was inactive: -4.34%.

**Q.** With `CN1CCCCC1COC(=O)C1(O)c2ccccc2CCc2ccccc21` (stereo not given) as the compound, how does the activation (cAMP increase) read?
**A.** The activation (cAMP increase) was inactive: -0.546%.

**Q.** With `COc1ccccc1OP(C)(=O)Nc1c(C)cccc1C` (stereo not given) as the compound, how does the activation (cAMP increase) read?
**A.** The activation (cAMP increase) was inactive: -14.3%.

**Q.** With `NS(=O)(=O)c1cccc(NC(=O)COC(=O)C(O)(c2ccccc2)c2ccccc2)c1` as the compound, how does the activation (cAMP increase) read?
**A.** The activation (cAMP increase) was inactive: 28.1%.

**Q.** For `O=P1(Nc2ccc(Br)cn2)COc2ccccc2OC1`, which activation (cAMP increase) is on record?
**A.** The activation (cAMP increase) was inactive: 33%.

**Q.** Which activation (cAMP increase) does the source give for `Cc1ccc(OCC(=O)OC2CN3CCC2CC3)cc1` (stereo not given) here?
**A.** Its activation (cAMP increase) is inactive: -57.4%.

**Q.** For `Nc1cccc([As](=O)(O)c2ccccc2)c1`, which activation (cAMP increase) is on record?
**A.** The activation (cAMP increase) was inactive: 0.382%.

**Q.** Which activation (cAMP increase) does the source give for `CP(=O)(Nc1ccc(SC(F)(F)F)cc1)Oc1ccccc1` (stereo not given) here?
**A.** Its activation (cAMP increase) is inactive: -0.594% [at 15.4 µM].

**Q.** Which activation (cAMP increase) does the source give for `CCCOc1ccc(NP(C)(=O)Oc2ccc(Cl)cc2)cc1` (stereo not given) here?
**A.** The activation (cAMP increase) was inactive: 20.7% [at 15.4 µM].

**Q.** Which activation (cAMP increase) does the source give for `COc1cc(C2NCCC3(OCCO3)C2(C)C)cc(OC)c1OC.O=[N+]([O-])c1cc([N+](=O)[O-])c(O)c([N+](=O)[O-])c1` (stereo not given) here?
**A.** The activation (cAMP increase) was inactive: -24.5%.

**Q.** Which activation (cAMP increase) does the source give for `Cc1ccc(C(=O)OC2CN3CCC2CC3)cc1` (stereo not given) here?
**A.** The activation (cAMP increase) was inactive: -36.2%.

**Q.** For `CC1CCC(C(C)C)C(OP(=O)(Nc2ccccn2)c2ccccc2)C1` (stereo not given), which activation (cAMP increase) is on record?
**A.** The activation (cAMP increase) was inactive: 0.947% [at 15.4 µM].

**Q.** With `Cc1nn(-c2ccccc2)c2c1P(=O)(N1CCOCC1)N(C)C(c1ccccc1)=N2` (stereo not given) as the compound, how does the activation (cAMP increase) read?
**A.** Its activation (cAMP increase) is inactive: 6.9%.

**Q.** For `CCCC1OP(=O)(Nc2ccccc2)OCC1CC` (stereo not given), which activation (cAMP increase) is on record?
**A.** The activation (cAMP increase) was inactive: -14.6%.

**Q.** For `O=C(/C=C/c1ccccc1)OC1CN2CCC1CC2` (stereo not given), which activation (cAMP increase) is on record?
**A.** Its activation (cAMP increase) is inactive: 12.5% [at 15.4 µM].

**Q.** For `CN(C)C1(CNC(=O)c2ccc(S(C)(=O)=O)cc2)CCCCC1`, which activation (cAMP increase) is on record?
**A.** Its activation (cAMP increase) is inactive: -26.8% [at 15.4 µM].

**Q.** For `CC1=NCCc2c1[nH]c1ccccc21.O=[N+]([O-])c1cc([N+](=O)[O-])c(O)c([N+](=O)[O-])c1`, which activation (cAMP increase) is on record?
**A.** Its activation (cAMP increase) is inactive: -0.572%.

**Q.** Which activation (cAMP increase) does the source give for `CN(C)C(=O)c1cc([N+](=O)[O-])cc2c1-c1c(cc([N+](=O)[O-])cc1[N+](=O)[O-])C2=O` here?
**A.** The activation (cAMP increase) was inactive: 19.5%.

**Q.** For `O=[N+]([O-])c1ccc2c(c1)nnn2O`, which activation (cAMP increase) is on record?
**A.** The activation (cAMP increase) was inactive: -41%.

**Q.** With `CCOP1(=S)c2c(C)nn(CCC#N)c2N=C(c2ccc(F)cc2)N1C` (stereo not given) as the compound, how does the activation (cAMP increase) read?
**A.** Its activation (cAMP increase) is inactive: -4.84%.

**Q.** For `N#CCCN(C(=O)COC(=O)C(O)(c1ccccc1)c1ccccc1)c1ccc(F)cc1`, which activation (cAMP increase) is on record?
**A.** Its activation (cAMP increase) is inactive: -25.1%.

**Q.** With `CS(=O)(=O)c1cc([N+](=O)[O-])c2no[n+]([O-])c2c1` as the compound, how does the activation (cAMP increase) read?
**A.** Its activation (cAMP increase) is inactive: 3.51%.

**Q.** For `O=P(Nc1nccs1)(Oc1ccccc1)Oc1ccccc1`, which activation (cAMP increase) is on record?
**A.** The activation (cAMP increase) was inactive: -25.5%.

**Q.** For `CCOP1(=S)c2c(C)nn(CCC#N)c2N=C(c2ccccc2F)N1C` (stereo not given), which activation (cAMP increase) is on record?
**A.** Its activation (cAMP increase) is inactive: 24.6%.

**Q.** With `O=C(O)COc1ccc([As](=O)(O)O)cc1[N+](=O)[O-]` as the compound, how does the activation (cAMP increase) read?
**A.** Its activation (cAMP increase) is inactive: 2.43%.

**Q.** Which activation (cAMP increase) does the source give for `Nc1ccccc1[As](=O)(O)c1ccccc1` here?
**A.** The activation (cAMP increase) was inactive: -11.1% [at 15.4 µM].

**Q.** For `CCCOP(=S)(Nc1nc(N)cc(=O)[nH]1)OCCC`, which activation (cAMP increase) is on record?
**A.** Its activation (cAMP increase) is inactive: -15.7%.

**Q.** For `Cc1ccc(C)c(NP(C)(=O)Oc2ccccc2)c1` (stereo not given), which activation (cAMP increase) is on record?
**A.** The activation (cAMP increase) was inactive: 11.3%.

**Q.** With `Cc1ccc(NCCc2c([N+](=O)[O-])cc([N+](=O)[O-])cc2[N+](=O)[O-])cc1` as the compound, how does the activation (cAMP increase) read?
**A.** The activation (cAMP increase) was inactive: -16.4%.

**Q.** With `CP(=O)(Nc1cccc(Br)c1)Oc1ccccc1` (stereo not given) as the compound, how does the activation (cAMP increase) read?
**A.** Its activation (cAMP increase) is inactive: 22.4%.

**Q.** For `Cc1cc(C)cc(OP(C)(=O)Nc2ccccn2)c1` (stereo not given), which activation (cAMP increase) is on record?
**A.** Its activation (cAMP increase) is inactive: 1.42%.

**Q.** Which activation (cAMP increase) does the source give for `CCOP(=O)(Nc1cccc2ccccc12)OCC` here?
**A.** Its activation (cAMP increase) is inactive: -27.5%.

**Q.** Which activation (cAMP increase) does the source give for `COc1ccccc1OP(C)(=O)Nc1cccc(Br)c1` (stereo not given) here?
**A.** The activation (cAMP increase) was inactive: -3.13%.

**Q.** Which activation (cAMP increase) does the source give for `COc1cc(C(=O)NCC2(N3CCOCC3)CCCCC2)cc(Cl)c1OC(C)C` here?
**A.** The activation (cAMP increase) was inactive: 22.1% [at 15.4 µM].

**Q.** Which activation (cAMP increase) does the source give for `O=C(OC1CN2CCC1CC2)c1ccc(Cl)cc1` (stereo not given) here?
**A.** The activation (cAMP increase) was inactive: -35.5%.

**Q.** Which activation (cAMP increase) does the source give for `CCOC(=O)c1ccc(NP(C)(=O)Oc2cc(C)cc(C)c2)cc1` (stereo not given) here?
**A.** Its activation (cAMP increase) is inactive: -8.55%.

**Q.** For `Cc1cc(C)cc(OP(C)(=O)Nc2ccc(C)cc2C)c1` (stereo not given), which activation (cAMP increase) is on record?
**A.** Its activation (cAMP increase) is inactive: -22.1%.

**Q.** With `O=[As](O)(c1cccc(O)c1)c1cccc(O)c1` as the compound, how does the activation (cAMP increase) read?
**A.** The activation (cAMP increase) was inactive: -0.618%.

**Q.** Which activation (cAMP increase) does the source give for `Cc1cccc(OCC(=O)OC2CN3CCC2CC3)c1` (stereo not given) here?
**A.** Its activation (cAMP increase) is inactive: 0%.

**Q.** Which activation (cAMP increase) does the source give for `COc1ccc(N/C(=N/P(=O)(N2CCOCC2)N2CCOCC2)N2CCOCC2)cc1` here?
**A.** The activation (cAMP increase) was inactive: -1.27% [at 15.4 µM].

**Q.** With `O=[N+]([O-])c1cc(Oc2ccc([N+](=O)[O-])cc2C(F)(F)F)cc([N+](=O)[O-])c1` as the compound, how does the activation (cAMP increase) read?
**A.** The activation (cAMP increase) was inactive: -1.21%.

**Q.** With `Cc1cc(=O)[nH]c(N[N+](=O)[O-])n1` as the compound, how does the activation (cAMP increase) read?
**A.** Its activation (cAMP increase) is inactive: -18.2%.

**Q.** Which activation (cAMP increase) does the source give for `CCN(CC)CCCOC(=O)C(O)(c1ccccc1)c1ccccc1` here?
**A.** The activation (cAMP increase) was inactive: -23.1%.

**Q.** With `O=C(OC1CN2CCC1CC2)C12CC3CC(CC(C3)C1)C2` (stereo not given) as the compound, how does the activation (cAMP increase) read?
**A.** Its activation (cAMP increase) is inactive: 5.07%.

**Q.** With `Cc1c2c(nc3ccccc13)SC(C(Cl)Cl)C2` (stereo not given) as the compound, how does the activation (cAMP increase) read?
**A.** Its activation (cAMP increase) is inactive: 24.6%.

**Q.** With `COc1cc(I)ccc1[As](=O)(O)O` as the compound, how does the activation (cAMP increase) read?
**A.** Its activation (cAMP increase) is inactive: 0.883% [at 15.4 µM].

**Q.** Which activation (cAMP increase) does the source give for `COc1ccc2nc(NP(=O)(c3ccccc3)c3ccccc3)sc2c1` here?
**A.** Its activation (cAMP increase) is inactive: 16.5%.

**Q.** With `Cc1ccc(S(=O)(=O)NCCCCC(NC(=O)OC(C)(C)C)C(=O)O)cc1.c1ccc(Nc2ccccc2)cc1` (stereo not given) as the compound, how does the activation (cAMP increase) read?
**A.** The activation (cAMP increase) was inactive: 5.34%.
